How the values were obtained:
SIK2 [1] = target: T1, SIK2 (Homo sapiens, UniProt Q9H0K1); experiment: SIK2 Enzymatic Assay High Version 2 (High ATP); assay type: biochemical
Protocol: All steps were performed at room temperature. Compounds were pre-plated onto an assay plate using an Echo acoustic dispenser (Labcyte, E550 or E555) at 80 nL per well. Enzyme prepared in assay buffer at 6 nM (2× final concentration) was added at 4 μL per well using the Multidrop Combi (Thermo Fisher—used for all additions in this assay) to the assay plate, spun for 1 min at 1000 rpm (Allegra 6KR Beckman Coulter centrifuge), and incubated with compound for 30 minutes. Assay buffer containing 6 mM ATP and 400 μM HDAC5tide (2× of final concentration for each substrate) was added at 4 μL per well to the assay plate and then spun as above and incubated for 2 hours. […] ADP-Glo Max Reagent (prepared and aliquoted as per manufacturer instructions) was then added at 8 μL per well, spun and incubated for 2 hours. ADP-Glo Max Detection (prepared and aliquoted as per manufacturer instructions) was added at 8 μL per well to the assay plate, which was spun and incubated for 1 hour. The plate is then read on the Pherastar (BMG Labtech) using a luminescence read. Gain is set between 2200-2500.

Chains of the proteins cited; added tags and fusions are not shown.
UniProt Q9H0K1, whole entry, species assumed: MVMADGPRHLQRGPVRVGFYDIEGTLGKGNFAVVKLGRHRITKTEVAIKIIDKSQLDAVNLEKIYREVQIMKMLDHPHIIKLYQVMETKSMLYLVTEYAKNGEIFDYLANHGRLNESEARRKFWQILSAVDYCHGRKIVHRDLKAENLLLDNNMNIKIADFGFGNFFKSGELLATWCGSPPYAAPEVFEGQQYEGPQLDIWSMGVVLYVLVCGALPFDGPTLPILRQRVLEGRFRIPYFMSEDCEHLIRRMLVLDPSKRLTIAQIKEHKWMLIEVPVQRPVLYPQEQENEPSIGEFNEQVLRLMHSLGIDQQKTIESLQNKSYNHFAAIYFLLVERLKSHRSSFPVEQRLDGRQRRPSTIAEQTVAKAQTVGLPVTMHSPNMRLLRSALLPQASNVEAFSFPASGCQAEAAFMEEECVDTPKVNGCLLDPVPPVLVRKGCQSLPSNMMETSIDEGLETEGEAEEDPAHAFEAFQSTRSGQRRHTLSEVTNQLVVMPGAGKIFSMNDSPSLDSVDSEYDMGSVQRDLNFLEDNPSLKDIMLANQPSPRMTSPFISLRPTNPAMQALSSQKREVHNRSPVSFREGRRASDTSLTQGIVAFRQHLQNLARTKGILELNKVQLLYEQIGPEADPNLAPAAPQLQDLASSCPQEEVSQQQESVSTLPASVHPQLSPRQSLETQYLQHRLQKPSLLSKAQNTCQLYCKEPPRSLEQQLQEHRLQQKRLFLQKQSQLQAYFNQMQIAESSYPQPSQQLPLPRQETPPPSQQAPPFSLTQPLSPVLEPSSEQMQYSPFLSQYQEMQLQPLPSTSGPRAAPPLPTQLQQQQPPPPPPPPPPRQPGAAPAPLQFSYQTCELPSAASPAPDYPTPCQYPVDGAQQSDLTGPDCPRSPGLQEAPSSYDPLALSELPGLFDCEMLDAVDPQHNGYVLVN

SIK2 [2] = target: T1, SIK2; experiment: SIK2 Enzymatic Assay Version 1 (ADP Glo); assay type: biochemical; conditions: enzyme 0.6 nM, 160 μM ATP and 140 μM HDAC5tide (each 2× final concentration); 30 minutes pre-incubation, 4 hours; ADPGlo luminescence; read-out: SIK2 ADP Glo IC50 (μM) (Test Example 1)
Protocol: All steps were performed at room temperature. Compounds were pre-plated onto an assay plate using an Echo acoustic dispenser (Labcyte, E550 or E555) at 20 nL per well. Enzyme prepared in Assay Buffer at 0.6 nM (2× final concentration) was added at 2 μL per well using the Multidrop Combi (Thermo Fisher—used for all additions in this assay) to the assay plate, spun for 1 min at 800-850 rpm (Allegra 6KR Beckman Coulter centrifuge), and incubated with compound for 30 minutes.
One column of wells was dedicated to a no-peptide negative control (containing only ATP). ADPGlo Reagent (prepared and aliquoted as per manufacturer instructions) was then added at 2 μL per well, spun and incubated for 40 min. ADPGlo Detection (prepared and aliquoted as per manufacturer instructions) was added at 2 μL per well to the assay plate, which was spun and incubated for at least 30 min. The plate was then read on the Pherastar (BMG Labtech) using a luminescence read. Gain was set by the 0.1 mM concentration of ADP wells in the ADP/ATP standard curve plate generated as per manufacturer instructions.

| SMILES | IC50 (SIK2 [1]) | IC50 (SIK2 [2]) |
| --- | --- | --- |
| CC#Cc1cc(-c2ccn3nc(Nc4cc(C)nc(C)n4)cc3c2)c(O[C@@H]2[C@@H]3CO[C@H]2CN3)cn1 [Example 440, N-(2,6-dimethylpyrimidin-4-yl)-5-[5-[[(1S,4S,7R)-2-oxa-5-azabicyclo[2.2.1]heptan-7-yl]oxy]-2-prop-1-ynyl-4-pyridyl]pyrazolo[1,5-a]pyridin-2-amine] | 6.71 nM | 0.000435 µM |
| Cc1cc(-c2ccn3nc(Nc4cc(C)nc(C)n4)cc3c2)c(OC[C@@H]2CN(C)C(=O)N2C)cn1 [Example 562, (4S)-4-[[4-[2-[(2,6-dimethylpyrimidin-4-yl)amino]pyrazolo[1,5-a]pyridin-5-yl]-6-methyl-3-pyridyl]oxymethyl]-1,3-dimethyl-imidazolidin-2-one] | 12 nM | 0.000438 µM |
